Key:
[1] = target: IGF-II receptor (IGF-IIR); assay: Receptor Binding Assay (IGF-II receptor competitive binding assay against biotinylated IGF-II, plate format); lyophilized product after 12 months at 2-8 C
[2] = target: IGF-II receptor (IGF-IIR); assay: Receptor Binding Assay (IGF-II receptor competitive binding assay against biotinylated IGF-II, plate format); lyophilized product at release

- IC50 [1]: 23.9 nM
- IC50 [2]: 33.4 nM
Substance: ZC-701 (from UniProt P10253 70-952) (enzyme)

Source: US20120148556A1
